# Laboratory results published in PMC7533695, “Supertertiary protein structure affects an allosteric network” (Proceedings of the National Academy of Sciences of the …, 2020).
# Columns and labels:
# [1] = target: T1, PSD-95 PDZ3 A347G (F337W) (Homo sapiens, UniProt P78352, A347G/F337W); test: Stopped-flow kinetics, PDZ3 A347G; type: binding; conditions: koff/kon, pH 7.45, 10 °C
# T1 construct: His tag (only implied by nickel column); made in house; host or cells: Escherichia coli BL21(DE3) pLys
# [2] = target: T2, PSD-95 PDZ3-SH3-GK (PSG) G322A (F337W) (Homo sapiens, UniProt P78352, F337W/G322A); test: Stopped-flow kinetics, PSG G322A; type: binding; conditions: koff/kon, pH 7.45, 10 °C
# T2 construct: PDZ3, SH3, and GK form another supramodule, denoted PSG; made in house; host or cells: Escherichia coli BL21(DE3) pLys
# [3] = target: T3, PSD-95 PDZ3-SH3-GK (PSG) F325A (F337W) (Homo sapiens, UniProt P78352, F325A/F337W); test: Stopped-flow kinetics, PSG F325A; type: binding; conditions: koff/kon, pH 7.45, 10 °C
# T3 construct: PDZ3, SH3, and GK form another supramodule, denoted PSG; made in house; host or cells: Escherichia coli BL21(DE3) pLys
# [4] = target: T4, PSD-95 PDZ3 R354A (F337W) (Homo sapiens, UniProt P78352, F337W/R354A); test: Stopped-flow kinetics, PDZ3 R354A; type: binding; conditions: koff/kon, pH 7.45, 10 °C
# T4 construct: His tag (only implied by nickel column); made in house; host or cells: Escherichia coli BL21(DE3) pLys
# [5] = target: T5, PSD-95 PDZ3-SH3-GK (PSG) E334A (F337W) (Homo sapiens, UniProt P78352, E334A/F337W); test: Stopped-flow kinetics, PSG E334A; type: binding; conditions: koff/kon, pH 7.45, 10 °C
# T5 construct: PDZ3, SH3, and GK form another supramodule, denoted PSG; made in house; host or cells: Escherichia coli BL21(DE3) pLys
# [6] = target: T6, PSD-95 PDZ3-SH3-GK (PSG) (pseudo WT, F337W) (Homo sapiens, UniProt P78352, F337W); test: Stopped-flow binding and displacement kinetics, PSG WT; conditions: koff/kon, pH 7.45, 10 °C
# T6 construct: PDZ3, SH3, and GK form another supramodule, denoted PSG; made in house; host or cells: Escherichia coli BL21(DE3) pLys
# [7] = target: T7, PSD-95 PDZ3 V362A (F337W) (Homo sapiens, UniProt P78352, F337W/V362A); test: Stopped-flow kinetics, PDZ3 V362A; type: binding; conditions: koff/kon, pH 7.45, 10 °C
# T7 construct: His tag (only implied by nickel column); made in house; host or cells: Escherichia coli BL21(DE3) pLys
# [8] = target: T8, PSD-95 PDZ3-SH3-GK (PSG) F400A (F337W) (Homo sapiens, UniProt P78352, F337W/F400A); test: Stopped-flow kinetics, PSG F400A; type: binding; conditions: koff/kon, pH 7.45, 10 °C
# T8 construct: PDZ3, SH3, and GK form another supramodule, denoted PSG; made in house; host or cells: Escherichia coli BL21(DE3) pLys
# [9] = target: T9, PSD-95 PDZ3-SH3-GK (PSG) G330A (F337W) (Homo sapiens, UniProt P78352, F337W/G330A); test: Stopped-flow kinetics, PSG G330A; type: binding; conditions: koff/kon, pH 7.45, 10 °C
# T9 construct: PDZ3, SH3, and GK form another supramodule, denoted PSG; made in house; host or cells: Escherichia coli BL21(DE3) pLys
# [10] = target: T10, PSD-95 PDZ3 F400A (F337W) (Homo sapiens, UniProt P78352, F337W/F400A); test: Stopped-flow kinetics, PDZ3 F400A; type: binding; conditions: koff/kon, pH 7.45, 10 °C
# T10 construct: made in house; host or cells: Escherichia coli BL21(DE3) pLys
# [11] = target: T11, PSD-95 PDZ3-SH3-GK (PSG) A376G (F337W) (Homo sapiens, UniProt P78352, A376G/F337W); test: Stopped-flow kinetics, PSG A376G; type: binding; conditions: koff/kon, pH 7.45, 10 °C
# T11 construct: PDZ3, SH3, and GK form another supramodule, denoted PSG; made in house; host or cells: Escherichia coli BL21(DE3) pLys
# [12] = target: T12, PSD-95 PDZ3 (pseudo WT, F337W) (Homo sapiens, UniProt P78352, F337W); test: Stopped-flow binding and displacement kinetics, PDZ3 WT; conditions: koff/kon, pH 7.45, 10 °C, average of replicates where replicated
# T12 construct: His tag (only implied by nickel column); made in house; host or cells: Escherichia coli BL21(DE3) pLys
# [13] = target: T13, PSD-95 PDZ3-SH3-GK (PSG) I327V (F337W) (Homo sapiens, UniProt P78352, F337W/I327V); test: Stopped-flow kinetics, PSG I327V; type: binding; conditions: koff/kon, pH 7.45, 10 °C
# T13 construct: PDZ3, SH3, and GK form another supramodule, denoted PSG; made in house; host or cells: Escherichia coli BL21(DE3) pLys
# [14] = target: T14, PSD-95 PDZ3 A376G (F337W) (Homo sapiens, UniProt P78352, A376G/F337W); test: Stopped-flow kinetics, PDZ3 A376G; type: binding; conditions: koff/kon, pH 7.45, 10 °C
# T14 construct: His tag (only implied by nickel column); made in house; host or cells: Escherichia coli BL21(DE3) pLys
# [15] = target: T15, PSD-95 PDZ3-SH3-GK (PSG) G335A (F337W) (Homo sapiens, UniProt P78352, F337W/G335A); test: Stopped-flow kinetics, PSG G335A; type: binding; conditions: koff/kon, pH 7.45, 10 °C
# T15 construct: PDZ3, SH3, and GK form another supramodule, denoted PSG; made in house; host or cells: Escherichia coli BL21(DE3) pLys
smiles,measurement,setting,value
CCC[C@H](NC(=O)[C@H](CCCCN)NC(=O)[C@H](Cc1ccc(O)cc1)NC(=O)[C@H](CC(N)=O)NC(=O)[C@H](CCCCN)NC(=O)[C@@H](NC(=O)[C@H](CC(=O)O)NC(=O)[C@H](CC(C)C)NC(=O)[C@@H](NC(=O)[C@H](CCCCN)NC(=O)[C@H](CCCCN)NC(=O)CN)C(C)C)[C@@H](C)O)C(=O)N[C@H](C(=O)N[C@@H](CO)C(=O)N[C@H](C(=O)O)C(C)C)[C@@H](C)O [CRIPTP-3 15 AA],Kd,[1],23 µM
same,Kd,[2],0.34 ± 0.01 µM
same,Kd,[3],3.6 ± 0.2 µM
same,Kd,[4],9.2 µM
same,Kd,[5],3.4 ± 0.1 µM
same,Kd,[6],1.7 ± 0.2 µM
same,Kd,[7],8.7 µM
same,Kd,[8],6 ± 0.3 µM
same,Kd,[9],14 ± 2 µM
same,Kd,[10],4.9 µM
same,Kd,[11],5.1 ± 0.2 µM
same,Kd,[12],9.7 µM
same,Kd,[13],9.2 ± 0.5 µM
same,Kd,[14],17 µM
same,Kd,[15],0.73 ± 0.02 µM
